Data from publication PMC13379236 (Cell reports, 2026).

Molecular target: T1, CRL2^ZYG11B pentamer complex (ZBCC) (human, UniProt Q9C0D3 1-744; Q15370 1-118; Q15369 17-112; Q13617 1-745; P62877 1-108)
T1 construct: also called E3 holoenzyme; CRL2-ZYG11B complex
Experiment: pull-down; MBP pull-down: about 100 ug MBP fusion protein immobilized on 50 uL amylose resin, prey at 1:1 molar ratio, 1 h at 4 C, eluted with 20 mM maltose, SDS-PAGE and Coomassie
Details: both partners purified

Binder | binding result
GSERRVLRQL (also called MBP-NLRP1 degron) [Degron-10 MBP fusion protein (GSERRVLRQL at the N terminus of MBP)] | binds
GSERRVLRQLPDTSGRRWRE (also called MBP-NLRP1 degron) [Degron-20 MBP fusion protein (GSERRVLRQLPDTSGRRWRE at the N terminus of MBP)] | binds
